Drawing on PubChem BioAssay AID602363 (Broad Institute, 2012), this text covers activity score for 97 compounds.

This is a selection; strong and weak results do not stand in their true shares. Activity calls are given as the source filed them.

The nature of the test: UUG initiation codon usage in yeast – whole organism, S. cerevisiae, single point, plate reader, primary screen (AID 602363).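 Also: firefly luciferase made from a UUG start codon reports start codon fidelity.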 Conditions: S. cerevisiae UUG-firefly luciferase reporter, luminescence/redox ratio; at 18.7 µM; active compounds read high.
For the compound `Cc1ccc(C)c(NP(C)(=O)Oc2ccccc2)c1` (configuration not stated), the activity score is inactive: -12.6%.

In the case of `Nc1cccc2c([As](=O)(O)O)cccc12`, the activity score is inactive: 8.04%.

Regarding `Cc1ccc(NCCc2c([N+](=O)[O-])cc([N+](=O)[O-])cc2[N+](=O)[O-])cc1`, the activity score is inactive: -12%.

Take `Cc1cc(C)cc(OP(C)(=O)Nc2ccccn2)c1` (configuration not stated): the activity score is inactive: -18%.

Turning to `CS(=O)(=O)c1ccc(Cl)c(NC(=O)COC(=O)C(O)(c2ccccc2)c2ccccc2)c1`, the activity score is inactive: 14.1%.

As to `COc1ccccc1OP(C)(=O)Nc1cccc(Br)c1` (configuration not stated), the activity score is inactive: -8.04%.

Take `O=[As](O)(O)c1cccnc1`: the activity score is inactive: -8.57%.

Regarding `O=C(OC1CN2CCC1CC2)c1ccc(Cl)cc1` (configuration not stated), the activity score is inactive: -11.7%.

In the case of `Cc1cc(C)cc(OP(C)(=O)Nc2ccc(C)cc2C)c1` (configuration not stated), the activity score was inactive: 0.034%.

Take `O=[As](O)(c1cccc(O)c1)c1cccc(O)c1`: the activity score was inactive: -13%.

Take `Cc1cccc(OCC(=O)OC2CN3CCC2CC3)c1` (configuration not stated): the activity score is inactive: -11.5%.

As to `NC(=O)Nc1ccc([As](=O)(O)O)cc1`, the activity score is inactive: -6.73%.

On to `CN(C(=O)Cc1ccc(Cl)c(Cl)c1)[C@H]1CC[C@@]2(CCCO2)C[C@@H]1N1CCCC1`, for which the activity score is inactive: -1.73%.

Consider `CC1=NCCc2c1[nH]c1ccccc21.O=[N+]([O-])c1cc([N+](=O)[O-])c(O)c([N+](=O)[O-])c1`, for which the activity score is inactive: 6.29%.

Turning to `CN(C)C(=O)c1cc([N+](=O)[O-])cc2c1-c1c(cc([N+](=O)[O-])cc1[N+](=O)[O-])C2=O`, the activity score is inactive: -35.4%.

Consider `O=[N+]([O-])c1ccc2c(c1)nnn2O`, for which the activity score is inactive: -8.17%.

As for `CCOP1(=S)c2c(C)nn(CCC#N)c2N=C(c2ccc(F)cc2)N1C` (configuration not stated), the activity score was inactive: 2.19%.

With `CN(C(=O)Cc1ccccc1)[C@@H]1CC[C@]2(CCCO2)C[C@H]1N1CCCC1`, the activity score is inactive: -7.83%.

With `N#CCCN(C(=O)COC(=O)C(O)(c1ccccc1)c1ccccc1)c1ccc(F)cc1`, the activity score is inactive: 1.75%.

Turning to `O=P(Nc1nccs1)(c1ccccc1)c1nc2ccccc2s1` (configuration not stated), the activity score is inactive: 13.9%.

As for `O=C(O)c1cccc(Nc2c([N+](=O)[O-])cc([N+](=O)[O-])cc2[N+](=O)[O-])c1`, the activity score is inactive: -4.2%.

For `CCOP1(=S)c2c(C)nn(CCC#N)c2N=C(c2ccccc2F)N1C` (configuration not stated), the activity score was inactive: 5.35%.

`O=C(O)COc1ccc([As](=O)(O)O)cc1[N+](=O)[O-]`: the activity score was inactive: 13.1%.

As to `Nc1ccccc1[As](=O)(O)c1ccccc1`, the activity score is inactive: -7.49%.

As to `O=P1(Nc2ncccn2)COc2ccccc2OC1`, the activity score is inactive: -15.5%.

Take `COc1ccccc1OP(C)(=O)Nc1c(C)cccc1C` (configuration not stated): the activity score is inactive: -8.22%.

For `NS(=O)(=O)c1cccc(NC(=O)COC(=O)C(O)(c2ccccc2)c2ccccc2)c1`, the activity score was inactive: 6.74%.

With `O=P1(Nc2ccc(Br)cn2)COc2ccccc2OC1`, the activity score is inactive: 1.84%.

For the compound `O=[As](O)(c1cccs1)c1cccs1`, the activity score was inactive: -14.6%.

Consider `Cc1ccc(OCC(=O)OC2CN3CCC2CC3)cc1` (configuration not stated), for which the activity score is inactive: -9.54%.

As for `Nc1cccc([As](=O)(O)c2ccccc2)c1`, the activity score was inactive: 6.14%.

Regarding `CCCOc1ccc(NP(C)(=O)Oc2ccc(Cl)cc2)cc1` (configuration not stated), the activity score is inactive: -8.21%.

With `Cc1ccc(C(=O)OC2CN3CCC2CC3)cc1` (configuration not stated), the activity score is inactive: -18.4%.

`CC1CCC(C(C)C)C(OP(=O)(Nc2ccccn2)c2ccccc2)C1` (configuration not stated): the activity score is inactive: 7.38%.

Regarding `Cc1nn(-c2ccccc2)c2c1P(=O)(N1CCOCC1)N(C)C(c1ccccc1)=N2` (configuration not stated), the activity score was inactive: -7.26%.

For the compound `CCOC(=O)C(CC)C1=NC(C)(C)Cc2ccccc21.O=[N+]([O-])c1cc([N+](=O)[O-])c(O)c([N+](=O)[O-])c1` (configuration not stated), the activity score is inactive: 20%.

As for `O=[N+]([O-])c1cc([N+](=O)[O-])c(Nc2nnnn2CCO)c([N+](=O)[O-])c1`, the activity score is inactive: 11.6%.

`O=[N+]([O-])c1cc([N+](=O)[O-])c(-c2cnn(-c3ccccc3)c2)c([N+](=O)[O-])c1`: the activity score was inactive: -20.7%.

Take `Cc1nc2ccc3ccccc3c2s1.O=[N+]([O-])c1cc([N+](=O)[O-])c(O)c([N+](=O)[O-])c1`: the activity score was inactive: -4.11%.

Regarding `CN(C(=O)Cc1ccc(Cl)c(Cl)c1)[C@@H]1CCCC[C@H]1N1CCCC1`, the activity score is inactive: -20.7%.

In the case of `CC(C)/C=N\N=C(\N)N[N+](=O)[O-]`, the activity score was inactive: -11.4%.

As for `Cc1ccc(S(=O)(=O)N(CCCN)CCCc2c(C)nc(N)[nH]c2=O)cc1.O=[N+]([O-])c1cc([N+](=O)[O-])c(O)c([N+](=O)[O-])c1`, the activity score is inactive: -13.4%.

Turning to `CN(CCCl)Cc1cc(Cl)c(NC2=NCCN2)c(Cl)c1`, the activity score is inactive: -20.6%.

For the compound `Nc1ccc(CCCCOc2ccccc2)cc1.O=[N+]([O-])c1cc([N+](=O)[O-])c(O)c([N+](=O)[O-])c1`, the activity score was inactive: -27.8%.

On to `CCOP(=O)(NC(=NC(C)c1ccccc1)NC(C)c1ccccc1)OCC` (configuration not stated), for which the activity score was inactive: -5.68%.

On to `O=[N+]([O-])c1cc([N+](=O)[O-])c(-n2nnc3ccccc32)c([N+](=O)[O-])c1`, for which the activity score is inactive: -7.09%.

In the case of `O=C(O)C(O)c1ccc(N(CCCl)CCCl)cc1.c1ccncc1` (configuration not stated), the activity score is inactive: -18.8%.

Consider `CCC1=CC2Cc3nc4ccc(Cl)cc4c(N)c3C(C1)C2` (configuration not stated), for which the activity score is inactive: -1.62%.

`O=P1(Nc2ccccn2)COc2ccccc2OC1`: the activity score is inactive: -16.7%.

As to `CC(C)(C)C(=O)NC(Sc1ncccn1)C(Cl)(Cl)Cl` (configuration not stated), the activity score is inactive: -2.52%.

As to `CN(Cc1cccnc1)C(=O)COc1ccc(Cl)c(Cl)c1.O=[N+]([O-])c1cc([N+](=O)[O-])c(O)c([N+](=O)[O-])c1`, the activity score is inactive: -2.88%.

For the compound `Clc1n[nH]nc1-c1nn[nH][15n]1`, the activity score was inactive: -13.8%.

As to `O=P1(N(CCCl)CCCl)NCCC(C(F)(F)F)O1` (configuration not stated), the activity score was inactive: -10.2%.

As to `O=[N+]([O-])c1cc([N+](=O)[O-])c(O)c([N+](=O)[O-])c1.c1ccc(Oc2ccncc2)cc1`, the activity score was inactive: -2.27%.

`CCOC(=O)c1ccc(NC(=O)C(C)(CCl)SC)cc1` (configuration not stated): the activity score is inactive: 15.6%.

On to `CCOC(=O)c1ccc(NP(C)(=O)Oc2ccc(OC)cc2)cc1` (configuration not stated), for which the activity score was inactive: 2.85%.

Take `CSc1ccc(Nc2c([N+](=O)[O-])cc([N+](=O)[O-])cc2[N+](=O)[O-])cc1`: the activity score is inactive: -12.5%.

As for `CCOP(C)(=S)SCC(=O)NC(C)C(=O)O` (configuration not stated), the activity score is inactive: -18.7%.

`O=C(OC1CN2CCC1CC2)c1cccc([N+](=O)[O-])c1` (configuration not stated): the activity score is inactive: -13%.

With `CP(=O)(Nc1ccccn1)Oc1ccc(Cl)cc1` (configuration not stated), the activity score is inactive: -20.4%.

As for `CCC(C)N(CC(C)C)C(=S)SC(NC(C)=O)C(Cl)(Cl)Cl` (configuration not stated), the activity score is inactive: -12.8%.

Turning to `CP(=O)(Oc1ccccc1)OC(c1ccccc1)C(F)(F)F` (configuration not stated), the activity score is inactive: -11.5%.

In the case of `CP(=O)(Nc1ccc(SC(F)(F)F)cc1)Oc1ccc(Cl)cc1` (configuration not stated), the activity score is inactive: 2.35%.

In the case of `Cc1cccc(C)c1OP(C)(=O)Nc1ccc(SC(F)(F)F)cc1` (configuration not stated), the activity score is inactive: -11.7%.

Turning to `Cc1ccc(Nc2c([N+](=O)[O-])cc([N+](=O)[O-])cc2[N+](=O)[O-])cc1`, the activity score was inactive: -36.9%.

For `COP1(=S)c2c(C)nn(CCC#N)c2N=C(c2ccc(F)cc2)N1C` (configuration not stated), the activity score is inactive: -7.07%.

As for `O=C(Nc1ccncc1[N+](=O)[O-])c1ccc([N+](=O)[O-])cc1[N+](=O)[O-]`, the activity score is inactive: -14.4%.

`CCc1ccc(OP(C)(=O)N2CCN(c3ccc([N+](=O)[O-])cc3)CC2)cc1` (configuration not stated): the activity score was inactive: -13.2%.

On to `O=C(COc1ccccc1)OC1CN2CCC1CC2` (configuration not stated), for which the activity score was inactive: -12.8%.

As to `CCOC(=O)Nc1cccc([As](=O)(O)O)c1`, the activity score was inactive: -0.554%.

Take `CP(=S)(Nn1cnnc1)Oc1ccccc1` (configuration not stated): the activity score is inactive: -7.44%.

As for `O=[N+]([O-])c1ccc(Nc2ccc(Oc3ccc([N+](=O)[O-])cc3[N+](=O)[O-])cc2)c([N+](=O)[O-])c1`, the activity score was inactive: -21.5%.

`CC1CCNP(=O)(N(CCCl)CCCl)O1` (configuration not stated): the activity score is inactive: -18.9%.

As to `CCOC(=O)Nc1ccc([As](=O)(O)O)c(O)c1`, the activity score is inactive: -3.23%.

On to `O=C(O)C(=O)c1ccc(N(CCCl)CCCl)cc1.c1ccc(Nc2ccccc2)cc1`, for which the activity score is inactive: 0.303%.

For `CCCCOc1ccc(C(=O)NCC2(N3CCCCC3)CCCCC2)cc1OC`, the activity score is inactive: -0.845%.

As for `COP(=O)(OC)N1CC1c1ccccc1` (configuration not stated), the activity score is inactive: 10.8%.

Take `CC(C)c1ccc(OP(=O)(Nc2ccccn2)Oc2ccccc2F)cc1` (configuration not stated): the activity score was inactive: -8.03%.

As for `Cc1ccc(NP(C)(=O)Oc2ccccc2)c(C)c1` (configuration not stated), the activity score was inactive: -12.9%.

As for `COc1ccccc1OP(C)(=O)Nc1ccc(C)cc1` (configuration not stated), the activity score is inactive: -12.2%.

On to `ClCCSc1nnc(-c2cccnc2)o1`, for which the activity score was inactive: -16.7%.

As for `CCOC(=O)c1ccc(NP(C)(=O)Oc2ccccc2)cc1` (configuration not stated), the activity score is inactive: -18.4%.

As for `Cc1cc(C)cc(OP(C)(N)=O)c1` (configuration not stated), the activity score is inactive: 3.69%.

As for `COc1ccc(OP(C)(=O)Nc2cccc(F)c2)cc1` (configuration not stated), the activity score is inactive: -17.1%.

Turning to `O=C(OC1CN2CCC1CC2)c1cccc2[nH]cnc12` (configuration not stated), the activity score was inactive: -24.5%.

In the case of `CCN(CC)C(=S)SC(NC=O)C(Cl)(Cl)Cl` (configuration not stated), the activity score is inactive: -9.9%.

For `O=[N+]([O-])c1ccc(-c2cc([N+](=O)[O-])c(O)c([N+](=O)[O-])c2)cc1`, the activity score is inactive: 2.15%.

Take `O=[As](O)(c1ccc(O)cc1)c1ccccc1O`: the activity score was inactive: 0.325%.

For the compound `C[As](=O)(O)c1cccc(C(=O)O)c1`, the activity score was inactive: -19.5%.

For the compound `O=[N+]([O-])c1cc([N+](=O)[O-])c(Nc2cccnc2)c([N+](=O)[O-])c1`, the activity score was inactive: -1.7%.

On to `Cc1ccc(OP(=O)(Nc2ccc([N+](=O)[O-])cn2)Oc2ccc(C)cc2)cc1`, for which the activity score is inactive: -22.6%.

As to `COc1ccc(N/C(=N/P(=O)(N2CCOCC2)N2CCOCC2)N2CCOCC2)cc1`, the activity score was inactive: -2.4%.

For `Cc1cc(=O)[nH]c(N[N+](=O)[O-])n1`, the activity score was inactive: -3.34%.

In the case of `O=C(OC1CN2CCC1CC2)C12CC3CC(CC(C3)C1)C2` (configuration not stated), the activity score was inactive: 1.26%.

As to `COc1cc(I)ccc1[As](=O)(O)O`, the activity score was inactive: 8.95%.

In the case of `O=P1(N(CCCl)CCCl)Nc2ccccc2N1`, the activity score was inactive: -23.8%.

For the compound `COc1ccc(CN2/C(=N\P(=O)(Oc3ccccc3)Oc3ccccc3)Cc3ccccc3C2C2CC2)cc1` (configuration not stated), the activity score was inactive: -14.6%.
